This assay addresses T1, Perilipin epitope 6 peptide EVRVPWLHSLAAAQE (SEQ ID NO. 333) (human, Biotin-PEG Spacer and GGSGGS Linker (SEQ ID NO. 438) at the N-terminus, or Biotin-PEG Spacer and AAAAA Linker (SEQ ID NO. 439) at the C-terminus).
T1 construct: Two biotinylated variants were used for selection and ELISA; On the peptide array it stood without biotin; also called target peptide
T1 peptide: EVRVPWLHSLAAAQE
Description: phage display selection and ELISA on biotinylated target peptide.

B1: Antibody No. 58 (antibody, V domains shown)
VH: QVQLVQSGAEVKKPGASVKVSCKASGYTFTSYYMHWVRQAPGQGLEWMGIINPSGGSTSYAQKFQGRVTMTRDTSTSTVYMELSSLRSEDTAVYYCARSRGGSAFDIWGQGTLVTVSS
VL: not shown
notes: human IgG1, lambda or kappa light chain; also called 447-B12
As to B1, the binding result is “binds”.

B2: Antibody No. 50 (antibody, V domains shown)
VH: QVQLVESGGGVVQPGRSLRLSCAASGFTFSSYAMHWVRQAPGKGLEWVAVISYDGSNKYYADSVKGRFTISRDNSKNTLYLQMNSLRAEDTAVYYCARSGSYFGFDYWGQGTLVTVSS
VL: not shown
notes: human IgG1, lambda or kappa light chain; also called 448-D05
B2: the binding result is listed as “binds”.

The values above are taken from patent US20220153822A1 (ALYTAS THERAPEUTICS, published 2022).
